Reference: patent US5225543A, “Receptors method for purification of G protein-linked” (priority 1991, dated 1993)

Amino acid sequences for entries named in this document (tags omitted).
UniProt P30680, whole entry: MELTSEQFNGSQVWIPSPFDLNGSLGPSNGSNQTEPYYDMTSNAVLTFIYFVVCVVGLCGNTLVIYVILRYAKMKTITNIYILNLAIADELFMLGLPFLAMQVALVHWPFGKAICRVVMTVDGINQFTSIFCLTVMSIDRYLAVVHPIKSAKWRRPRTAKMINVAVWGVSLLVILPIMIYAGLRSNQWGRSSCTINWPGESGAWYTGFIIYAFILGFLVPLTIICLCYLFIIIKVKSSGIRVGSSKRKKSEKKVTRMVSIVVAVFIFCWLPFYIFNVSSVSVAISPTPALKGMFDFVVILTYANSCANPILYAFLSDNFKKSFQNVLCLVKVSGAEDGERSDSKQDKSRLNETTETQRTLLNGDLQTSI

Target: SRIF receptor (GH4 C1 membranes) (Rattus norvegicus, UniProt P30680)
Experiment: Purification method as receptor assay: binding of biotinyl-S28 to GH4 C1 membranes (FIG. 10)
Details: 10,000 nM non-biotinylated SRIF-14

C[C@H](N)C(=O)NCC(=O)N[C@H]1CSSC[C@@H](C(=O)O)NC(=O)[C@H](CO)NC(=O)[C@H]([C@@H](C)O)NC(=O)[C@H](Cc2ccccc2)NC(=O)[C@H]([C@@H](C)O)NC(=O)[C@H](CCCCN)NC(=O)[C@H](Cc2c[nH]c3ccccc23)NC(=O)[C@H](Cc2ccccc2)NC(=O)[C@H](Cc2ccccc2)NC(=O)[C@H](CC(N)=O)NC(=O)[C@H](CCCCN)NC1=O
competition of 10 nM B28 binding (75-95,000 MW glycoprotein): competed out of the binding pocket
